These results are taken from ChEMBL document CHEMBL1129881 (Bioorg Med Chem Lett, 1997).

Protein sequences, listed by entry. Tags and fused reporters are not part of them.
UniProt P32307, whole entry: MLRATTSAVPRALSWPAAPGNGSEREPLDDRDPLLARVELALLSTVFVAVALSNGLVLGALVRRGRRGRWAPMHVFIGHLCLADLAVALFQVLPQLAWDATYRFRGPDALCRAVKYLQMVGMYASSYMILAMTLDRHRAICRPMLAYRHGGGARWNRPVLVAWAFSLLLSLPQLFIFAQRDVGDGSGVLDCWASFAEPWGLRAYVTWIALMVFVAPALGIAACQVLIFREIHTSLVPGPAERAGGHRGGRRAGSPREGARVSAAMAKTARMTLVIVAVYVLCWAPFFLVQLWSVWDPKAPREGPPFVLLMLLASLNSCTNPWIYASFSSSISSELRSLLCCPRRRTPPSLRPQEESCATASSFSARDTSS

A word on the IC50: it is the concentration needed to halve the response being measured. A high value points to weaker potency.

Structures are written as SMILES.

The target of this experiment is Vasopressin V2 receptor (Sus scrofa, UniProt P32307). Kind of experiment: Tested for the inhibition to V2 subtype receptor using [3H]- (VS2) as radioligand at 3 nM and arginine-vasopressin at 2 uM in LLCPKI cells. The experiment is classed as cell-based.

With `NC(=O)CC[C@@H]1NC(=O)[C@H](Cc2ccccc2)NC(=O)[C@H](Cc2ccc(O)cc2)NC(=O)[C@@H](N)CSSC[C@@H](C(=O)N2CCC[C@H]2C(=O)N[C@@H](CCCN=C(N)N)C(=O)NCC(N)=O)NC(=O)[C@H](CC(N)=O)NC1=O` [VASOPRESSIN], the IC50 turned out to be 3.3 nM.
